The numbers were not newly measured in publication PMC3203879 (PLoS ONE, 2011), which cites them from elsewhere.

For this series, the target named is thrombin. The conditions noted are these: cited from earlier work.

For orientation: Ki means a dissociation constant, usually derived from enzyme kinetics or from competition with a known ligand. Regarding `CC1CNc2c(cccc2S(=O)(=O)N[C@@H](CCCNC(=N)N)C(=O)N2CC[C@@H](C)C[C@@H]2C(=O)O)C1` (stereo partly shown) [argatroban], the Ki is 3.2 nM.
